Values quoted from earlier work, collected in EP1241153A1, “GAS-GENERATING AGENT COMPOSITION” (dated 2001).

System: rat

N.N.N1=NC(=C2N=NN=N2)N=N1
LD50 (oral-rat): 2,000 mg/kg
